CycPeptMPDB entries from one study

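Conditions beyond the assay type are not listed; see the original paper. Other peptides of the study may be missing here. Peptides that the database sets to -10, its floor, are left out.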

PAMPA measures passive passage through an artificial lipid membrane. Values are log10 P with P in cm/s, so -5 is more permeable than -7.

- CC(C)C[C@@H]1NC(=O)[C@@H](C)N(C)C(=O)[C@@H]2CCCN2C(=O)[C@H](Cc2ccccc2)NC(=O)CN(Cc2ccccc2)C(=O)[C@@H]2CCCN2C(=O)[C@@H](CC(C)C)N(C)C1=O: PAMPA -5.89 (log10 cm/s)
- CCCN1CC(=O)N(C)[C@H](CC(C)C)C(=O)N[C@@H](Cc2ccccc2)CC(=O)N2CCC[C@@H]2C(=O)N(C)[C@H](CC(C)C)C(=O)N[C@@H](Cc2ccccc2)C(=O)N2CCC[C@H]2C1=O: PAMPA -5.63 (log10 cm/s)
- CC(C)C[C@@H]1C(=O)N(Cc2ccccc2)CC(=O)N2CCC[C@H]2C(=O)N(Cc2ccccc2)CC(=O)N[C@@H](Cc2ccccc2)C(=O)N(C)[C@@H](C)C(=O)N1C: PAMPA -5.03 (log10 cm/s)
- CC(C)C[C@@H]1C(=O)N[C@H](CC(C)C)C(=O)N2CCC[C@H]2C(=O)N(C)[C@H](CC(C)C)C(=O)N[C@@H](Cc2ccccc2)C(=O)N[C@H](C)C(=O)N1C: PAMPA -5.58 (log10 cm/s)
- CC(C)C[C@@H]1NC(=O)[C@@H](C)NC(=O)[C@@H]2CCCN2C(=O)[C@H](Cc2ccccc2)NC(=O)[C@@H](CC(C)C)NC(=O)[C@@H]2CCCN2C(=O)CN(Cc2ccccc2)C1=O: PAMPA -6.12 (log10 cm/s)
- CCCN1CC(=O)N[C@H](CC(C)C)C(=O)N[C@@H](CC(C)C)C(=O)N2CCC[C@H]2C(=O)N(C)[C@H](CC(C)C)C(=O)N[C@@H](Cc2ccccc2)C(=O)N2CCC[C@@H]2C1=O: PAMPA -5.63 (log10 cm/s)
- CC(C)C[C@H]1NC(=O)[C@H]2CCCN2C(=O)[C@H](CC(C)C)N(C)C(=O)CN(Cc2ccccc2)C(=O)[C@@H](C)N(C)C(=O)[C@@H]2CCCN2C(=O)[C@H](Cc2ccccc2)NC1=O: PAMPA -5.42 (log10 cm/s)
- CC(C)C[C@H]1NC(=O)[C@H]2CCCN2C(=O)[C@@H](CC(C)C)NC(=O)[C@@H](CC(C)C)NC(=O)[C@H](C)N(C)C(=O)[C@H](Cc2ccccc2)NC1=O: PAMPA -5.06 (log10 cm/s)
- CC(C)C[C@H]1C(=O)N[C@@H](Cc2ccccc2)CC(=O)N2CCC[C@@H]2C(=O)N(C)[C@@H](CC(C)C)C(=O)N[C@@H](Cc2ccccc2)C(=O)N2CCC[C@@H]2C(=O)N(C)[C@H](C)C(=O)N1C: PAMPA -5.93 (log10 cm/s)
- CC(C)C[C@@H]1C(=O)N(C)[C@@H](CC(C)C)C(=O)N2CCC[C@@H]2C(=O)N[C@H](CC(C)C)C(=O)N[C@@H](Cc2ccccc2)C(=O)N2CCC[C@H]2C(=O)N[C@@H](C)C(=O)N1C: PAMPA -5.60 (log10 cm/s)
- CC(C)C[C@@H]1NC(=O)[C@H]2CCCN2C(=O)[C@H](CC(C)C)N(C)C(=O)[C@H](CC(C)C)NC(=O)[C@@H](C)N(C)C(=O)[C@H](Cc2ccccc2)NC1=O: PAMPA -5.29 (log10 cm/s)
- CC(C)C[C@H]1NC(=O)[C@@H]2CCCN2C(=O)C[C@H](Cc2ccccc2)NC(=O)[C@H](CC(C)C)N(C)C(=O)[C@@H](C)N(C)C(=O)[C@@H]2CCCN2C(=O)[C@H](Cc2ccccc2)NC1=O: PAMPA -6.27 (log10 cm/s)
- CC(C)C[C@H]1NC(=O)[C@H](CC(C)C)N(C)C(=O)[C@H](C)NC(=O)[C@H](Cc2ccccc2)NC(=O)CN(Cc2ccccc2)C(=O)[C@H]2CCCN2C1=O: PAMPA -5.76 (log10 cm/s)
- CC(C)C[C@@H]1NC(=O)[C@H](C)NC(=O)[C@H](Cc2ccccc2)NC(=O)[C@@H](CC(C)C)NC(=O)[C@@H]2CCCN2C(=O)[C@H](CC(C)C)NC1=O: PAMPA -6.62 (log10 cm/s)
- CC(C)C[C@H]1NC(=O)C[C@H](Cc2ccccc2)NC(=O)[C@H](Cc2ccccc2)NC(=O)[C@H](CC(C)C)N(C)C(=O)[C@H]2CCCN2C(=O)C[C@H](Cc2ccccc2)NC1=O: PAMPA -5.63 (log10 cm/s)
- CC(C)C[C@@H]1C(=O)N(Cc2ccccc2)CC(=O)N2CCC[C@H]2C(=O)N[C@H](CC(C)C)C(=O)N[C@@H](Cc2ccccc2)C(=O)N(C)[C@@H](C)C(=O)N1C: PAMPA -5.84 (log10 cm/s)
- CC(C)C[C@@H]1NC(=O)C[C@H](Cc2ccccc2)NC(=O)[C@H](Cc2ccccc2)NC(=O)[C@H](CC(C)C)N(C)C(=O)[C@@H]2CCCN2C(=O)[C@H](CC(C)C)N(C)C1=O: PAMPA -5.14 (log10 cm/s)
- CC(C)C[C@@H]1NC(=O)[C@@H](CC(C)C)N(C)C(=O)[C@@H](C)NC(=O)[C@H]2CCCN2C(=O)[C@H](Cc2ccccc2)NC(=O)CN(Cc2ccccc2)C(=O)[C@H]2CCCN2C1=O: PAMPA -5.33 (log10 cm/s)
- CC(C)C[C@H]1NC(=O)[C@H](C)N(C)C(=O)[C@H](Cc2ccccc2)NC(=O)CN(Cc2ccccc2)C(=O)[C@H]2CCCN2C(=O)C[C@H](Cc2ccccc2)NC1=O: PAMPA -5.64 (log10 cm/s)
- CCCN1CC(=O)N(C)[C@@H](CC(C)C)C(=O)N[C@@H](Cc2ccccc2)CC(=O)N2CCC[C@@H]2C(=O)N(C)[C@@H](CC(C)C)C(=O)N[C@@H](Cc2ccccc2)C(=O)N2CCC[C@@H]2C1=O: PAMPA -5.50 (log10 cm/s)
- CC(C)C[C@@H]1NC(=O)[C@H](C)NC(=O)[C@@H]2CCCN2C(=O)[C@H](Cc2ccccc2)NC(=O)[C@H](CC(C)C)NC(=O)[C@@H]2CCCN2C(=O)C[C@H](Cc2ccccc2)NC1=O: PAMPA -6.49 (log10 cm/s)
- CC(C)C[C@@H]1NC(=O)[C@@H](C)N(C)C(=O)[C@H](Cc2ccccc2)NC(=O)[C@H](CC(C)C)NC(=O)[C@@H]2CCCN2C(=O)[C@H](CC(C)C)NC1=O: PAMPA -6.26 (log10 cm/s)

Excerpt, the opening 3 entries:

compound	PAMPA (log10 cm/s)
CC(C)C[C@@H]1NC(=O)[C@@H](C)N(C)C(=O)[C@@H]2CCCN2C(=O)[C@H](Cc2ccccc2)NC(=O)CN(Cc2ccccc2)C(=O)[C@@H]2CCCN2C(=O)[C@@H](CC(C)C)N(C)C1=O	-5.89
CCCN1CC(=O)N(C)[C@H](CC(C)C)C(=O)N[C@@H](Cc2ccccc2)CC(=O)N2CCC[C@@H]2C(=O)N(C)[C@H](CC(C)C)C(=O)N[C@@H](Cc2ccccc2)C(=O)N2CCC[C@H]2C1=O	-5.63
CC(C)C[C@@H]1C(=O)N(Cc2ccccc2)CC(=O)N2CCC[C@H]2C(=O)N(Cc2ccccc2)CC(=O)N[C@@H](Cc2ccccc2)C(=O)N(C)[C@@H](C)C(=O)N1C	-5.03

Data: CycPeptMPDB; original report Townsend et al. 2020, doi:10.26434/chemrxiv.13335941.v1.